# Measured values as given in patent US5045530A, “Pharmaceutical preparations” (priority 1986, dated 1991).
# Only a part of the results on these compounds is given; other tests are left out.
# Assays:
# [1] = toxicity of micellarly included active agents
# [2] = test system: cell-wall-synthesizing enzymes; conditions: gramnegative bacteria
# interferon α1 = experiment: interferon induction in cell cultures of lymphocytes and fibroblasts; conditions: Hg(CN)2 5 μg/ml to 15 μg/ml micellarly included in 0.1% (g/g) cationic tenside
# interferon β = experiment: as above
substance,measurement,setting,value
mercury II cyanide,reduction of toxicity by inclusion in N-tensides,[1],up to 80%
same,concentration at which the micellarly included substance reacts with the cell-wall-synthesizing enzymes,[2],10 µg/mL
same,interferon α1 concentration induced,interferon α1,20-50 units/ml
same,interferon β concentration induced,interferon β; Hg(CN)2 5 μg/ml to 15 μg/ml micellarly included in 0.1% (g/g) cationic tenside,10-20 units/ml
same,increase of interferon liberation compared with simple aqueous buffered solutions of mercury II cyanide,"interferon β; micellar incorporation, in particular interferon β, fibroblast cultures",10 to 100 fold
